This experiment has as its system S. cerevisiae RPL19A-GFP strain, flow cytometry fluorescence, 3 h. Description: TOR pathway RPL19A-GFP modulators, concentration series – cell-based, S. cerevisiae, flow cytometry, MLPCN hits, dose response (AID 2740).

For `CC(C)(C)n1nc(-c2ccc(Cl)cc2)c2c(N)ncnc21`, the EC50 is 1280 nM.

As to `Cc1ccc(-c2nn(C(C)(C)C)c3ncnc(N)c23)cc1`, the EC50 was 825 nM.

These data come from PubChem BioAssay AID2740 (NMMLSC, 2010).
